Source: patent US12649783B2, “Anti-MCT1 antibodies and uses thereof” (IMMUNEXT INC., priority 2018, dated 2026)

Tested on: Tr1 cells
Experiment: ex vivo Tr1 survival
Format: cell-based, human
Procedure: Humanized NSG mice (treated with anti-MCT1) were sacrificed on d32 or other day specified, single cells suspensions were prepared from spleens, followed by bead-based enrichment of hCD3+ cells. Isolated cells were plated with the analytes (see above table) to access Tr1 survival: […]

Substance: IL-2: Recombinant Human IL2 (carrier-free), Biolegend 589104
- ex vivo Tr1 survival: increased ex vivo Tr1 survival in a dose-dependent manner
